Consider one compound from patent US8067603B2 (priority 2003, dated 2011).

Chains of the proteins cited; added tags and fusions are not shown. Lines headed by an entry give the natural chain unless they say otherwise; changes in a name come on top.
UniProt P41146: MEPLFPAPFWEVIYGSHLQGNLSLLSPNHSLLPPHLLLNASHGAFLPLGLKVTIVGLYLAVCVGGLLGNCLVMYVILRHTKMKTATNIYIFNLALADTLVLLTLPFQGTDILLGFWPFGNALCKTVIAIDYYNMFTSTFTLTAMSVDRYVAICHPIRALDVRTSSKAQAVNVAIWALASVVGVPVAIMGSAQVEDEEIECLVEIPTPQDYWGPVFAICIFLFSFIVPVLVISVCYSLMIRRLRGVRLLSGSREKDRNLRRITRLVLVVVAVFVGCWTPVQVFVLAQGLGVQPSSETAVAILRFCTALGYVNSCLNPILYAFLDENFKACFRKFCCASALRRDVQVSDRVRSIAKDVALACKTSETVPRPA
UniProt P35372, whole entry, looked up: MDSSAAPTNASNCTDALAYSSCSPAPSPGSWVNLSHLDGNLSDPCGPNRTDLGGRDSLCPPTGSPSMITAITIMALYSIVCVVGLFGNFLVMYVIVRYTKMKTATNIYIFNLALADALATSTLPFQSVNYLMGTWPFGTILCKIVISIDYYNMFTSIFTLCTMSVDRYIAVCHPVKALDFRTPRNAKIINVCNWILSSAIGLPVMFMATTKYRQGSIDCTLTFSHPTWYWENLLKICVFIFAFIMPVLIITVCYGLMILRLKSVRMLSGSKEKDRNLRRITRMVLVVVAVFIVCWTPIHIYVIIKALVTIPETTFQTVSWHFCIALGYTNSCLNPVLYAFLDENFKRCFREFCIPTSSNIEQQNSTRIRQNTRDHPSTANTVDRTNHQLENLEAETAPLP

Structures are written as SMILES. Some results are limits rather than exact numbers.

The target of experiment [1] is T1, ORL1 receptor (Homo sapiens, UniProt P41146). Put plainly: In vitro ORL1 receptor agonism, cAMP assay.
Experiment [2] concerns the target T1, ORL1 receptor. Kind of experiment: Affinity for human ORL1 receptors, [3H]-nociceptin binding, CHO-cell membranes. To be noted: membranes of CHO-cells expressing human ORL1.
For experiment [3], the target named is human μ-opiate receptor (Homo sapiens, UniProt P35372). Put plainly: Affinity for human μ-opiate receptors, [3H]-naloxone binding, CHO-cell membranes. To be noted: membranes of CHO-cells expressing human μ-opiate receptor.

Consider `O=c1[nH]c2ccccc2n1C1CCN(C2CCC3CCCc4cccc2c43)C1` (stereo not drawn), for which the “In vitro agonism cAMP assay pEC50” value in experiment [1] was 9.1. In addition, the “affinity ORL1 pKi” value in experiment [2] was 7.5. Besides, in experiment [3], the “affinity μ-opi pKi” value was below 6.0.
